Target: human mPGES-1 (Homo sapiens, UniProt O14684)
Assay: Microsomal Prostaglandin E Synthase Assay
Conditions: read-out: h-CHO (nM), potency expressed as IC50; microsomal fractions from CHO-K1 cells transiently transfected with human mPGES-1 cDNA; 1 μM PGH2; PGE2 by EIA; average of at least n=3
Description: Compounds are tested as inhibitors of prostaglandin E synthase activity in microsomal prostaglandin e synthases, whole cell and in vivo assays. These assays measure prostaglandin E2 (PGE2) synthesis using either Enzymatic Immunoassay (EIA) or mass spectrometry. Cells used for microsomal preparation are CHO-K1 cells transiently transfected with plasmids encoding the human mPGES-1 cDNA. Cells used for cell-based experiments are human A549 (which express human mPGES-1). Guinea pigs are used to test the activity of selected compounds in vivo. In all these assays, 100% activity is defined as the PGE2 production in vehicle-treated samples. IC50 and ED50 represent the concentration or dose of inhibitor required to inhibit PGE2 synthesis by 50% as compared to the uninhibited control.
Prostaglandin E synthase microsomal fractions are prepared from CHO-K1 cells transiently transfected with plasmid encoding the human mPGES-1 cDNA. Microsomes are then prepared and the PGES assay begins with the incubation of 5 μg/ml microsomal PGES-1 with compound or DMSO (final 1%) for 20-30 minutes at room temperature. The enzyme reactions are performed in 200 mM KPi pH 7.0, 2 mM EDTA and 2.5 mM GSH-reduced form. The enzymatic reaction is then initiated by the addition of 1 μM final PGH2 substrate prepared in isopropanol (3.5% final in assay well) and incubated at room temperature for 30 seconds. The reaction is terminated by the addition of SnCl2 in 1N HCl (1 mg/ml final). Measurement of PGE2 production in the enzyme reaction aliquots is done by EIA using a standard commercially available kit (Cat #: 901-001 from Assay Designs).
The potency is expressed as IC50 and the value indicated is an average of at least n=3.

The chains behind the UniProt entries cited, without tags or fusion partners.
UniProt O14684, whole entry: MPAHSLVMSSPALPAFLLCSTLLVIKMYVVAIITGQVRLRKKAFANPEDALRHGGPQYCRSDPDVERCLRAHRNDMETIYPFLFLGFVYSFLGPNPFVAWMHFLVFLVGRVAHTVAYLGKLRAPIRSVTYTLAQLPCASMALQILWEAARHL

| IC50 | SMILES |
| --- | --- |
| 2.1 nM | CC(=O)OC(C)(C)Cc1ccc2c(n1)c1cc(OCC3CC3)ccc1c1nc(-c3c(C#N)cccc3C#N)[nH]c21 |
| 20.7 nM | Fc1cccc(Cl)c1-c1nc2c3ccccc3c3ccsc3c2[nH]1 |
| 237 nM | Fc1cccc(Cl)c1-c1nc2c3ccccc3c3ncccc3c2[nH]1 |
